These results are taken from PMC5681660, “Reduced hepatitis B and D viral entry using clinically applied drugs as novel inhibitors of the bile acid transporter NTCP” (Scientific Reports, 2017).

Where a name gives a salt, the structure may show the parent alone.

For the first test, the target named is T1, human NTCP (Homo sapiens, UniProt Q14973).
T1 sequence (Q14973 1-349): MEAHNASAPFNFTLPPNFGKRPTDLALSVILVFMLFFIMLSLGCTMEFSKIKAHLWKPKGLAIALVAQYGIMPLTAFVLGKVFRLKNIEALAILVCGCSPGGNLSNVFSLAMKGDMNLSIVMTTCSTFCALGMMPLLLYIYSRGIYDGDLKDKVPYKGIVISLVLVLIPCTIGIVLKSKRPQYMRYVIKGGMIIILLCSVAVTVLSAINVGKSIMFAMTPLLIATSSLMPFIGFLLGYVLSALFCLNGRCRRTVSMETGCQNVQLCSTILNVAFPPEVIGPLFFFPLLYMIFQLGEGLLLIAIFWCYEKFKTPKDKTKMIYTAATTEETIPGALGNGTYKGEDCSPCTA
In words: Screening fluorescent competitive Myrcludex B-FITC binding assay (96-well, 10 µM drug). The note with it: 0.5 h, read-out: %NTCP binding, screening Myrcludex B-FITC binding, 10 µM drug, Prestwick library.
For the molecule `NC(=O)C[S+]([O-])C(c1ccccc1)c1ccccc1` (stereo not drawn) [Modafinil], the remaining activity at 10 µM stood at 79.1%.
The same measure, in the same setting: the result for `C=C1CC[C@@]2(O)[C@H]3Cc4ccc(O)c5c4[C@@]2(CCN3CC2CC2)[C@H]1O5` [Nalmefene hydrochloride] reads 79.8%.
On the same count and under the same terms, the result for `C[C@]12C/C(=C/O)C(=O)C[C@@H]1CC[C@@H]1[C@@H]2CC[C@@]2(C)[C@H]1CC[C@]2(C)O` [Oxymetholone] reads 45%; that for `c1ccc2c(c1)Nc1ccccc1S2` [Phenothiazine], 59.7%; that for `NC(=O)OCCCc1ccccc1` [Phenprobamate], 53.8%.

The same test, now with this note: screening Myrcludex B-FITC binding, 10 µM drug.
`Clc1ccc(COC(Cn2ccnc2)c2ccc(Cl)cc2Cl)c(Cl)c1` (stereo not drawn) [Miconazole] registered a B-score binding assay of 0.078.
Still for that read-out and setting: the result for `CC#C[C@]1(O)CC[C@H]2[C@@H]3CCC4=CC(=O)CCC4=C3[C@@H](c3ccc(N(C)C)cc3)C[C@@]21C` [Mifepristone] reads -0.121; that for `OCCN1C[C@H](O)[C@@H](O)[C@H](O)[C@H]1CO` [Miglitol], 1.428; that for `Nc1cc(N2CCCCC2)nc(N)[n+]1[O-]` [Minoxidil], -1.367.
The same measure, in the same setting: the result for `CN1CCN2c3ncccc3Cc3ccccc3C2C1` (stereo not drawn) [Mirtazapine] reads -0.35; that for `NC(=O)C[S+]([O-])C(c1ccccc1)c1ccccc1` (stereo not drawn) [Modafinil], -1.282.
Still for that read-out and setting: the result for `CCOC(=O)[N-]c1cn(N2CCOCC2)n[o+]1` [Molsidomine] reads -1.062.
In turn, `C[C@@H]1C[C@H]2[C@@H]3CCC4=CC(=O)C=C[C@]4(C)[C@@]3(Cl)[C@@H](O)C[C@]2(C)[C@@]1(OC(=O)c1ccco1)C(=O)CCl` [Mometasone furoate] gave a B-score binding assay of -4.293.
On the same count and under the same terms, the result for `CC[C@@]1([C@H]2O[C@H]([C@H]3O[C@@](O)(CO)[C@H](C)C[C@@H]3C)C[C@H]2C)CC[C@H]([C@@]2(C)CC[C@]3(C[C@H](O)[C@@H](C)[C@@H]([C@H](C)[C@H](OC)[C@@H](C)C(=O)[O-])O3)O2)O1.[Na+]` [Monensin sodium salt] reads -0.589.
On the same count and under the same terms, the result for `Oc1ccc(OCc2ccccc2)cc1` [Monobenzone] reads -0.108; that for `CC(C)(O)c1ccccc1CC[C@@H](SCC1(CC(=O)O)CC1)c1cccc(/C=C/c2ccc3ccc(Cl)cc3n2)c1` [Montelukast], -2.476; that for `CO[C@@]1(NC(=O)C(C(=O)O)c2ccc(O)cc2)C(=O)N2C(C(=O)O)=C(CSc3nnnn3C)CO[C@@H]21` (stereo partly drawn) [Moxalactam disodium salt], 1.82.
Same read-out and setting: the result for `CNc1ncnc2c1ncn2[C@@H]1O[C@H](CO)[C@@H](O)[C@H]1O` [N6-methyladenosine] reads -0.333; that for `CC(=O)N[C@@H](CC(C)C)C(=O)O` [N-Acetyl-L-leucine], 2.858; that for `NC(=O)c1ccc[n+]([C@@H]2O[C@H](COP(=O)([O-])OP(=O)(O)OC[C@H]3O[C@@H](n4cnc5c(N)ncnc54)[C@H](O)[C@@H]3O)[C@@H](O)[C@H]2O)c1` [Nadide], -0.892.
The molecule `CCOc1ccc2ccccc2c1C(=O)N[C@@H]1C(=O)N2[C@@H]1SC(C)(C)[C@@H]2C(=O)O` [Nafcillin sodium salt monohydrate] registered a B-score binding assay of -2.394.
The same measure, in the same setting: the result for `CCN(CC)CCOC(=O)C(Cc1cccc2ccccc12)CC1CCCO1` (stereo not drawn) [Nafronyl oxalate] reads 1.482; that for `CCn1cc(C(=O)[O-])c(=O)c2ccc(C)nc21.[Na+]` [Nalidixic acid sodium salt], -0.349; that for `C=C1CC[C@@]2(O)[C@H]3Cc4ccc(O)c5c4[C@@]2(CCN3CC2CC2)[C@H]1O5` [Nalmefene hydrochloride], -0.048.
Still for that read-out and setting: the result for `c1ccc2c(CC3=NCCN3)cccc2c1` [Naphazoline hydrochloride] reads -1.427.
The molecule `CCc1nn(CCCN2CCN(c3cccc(Cl)c3)CC2)c(=O)n1CCOc1ccccc1` [Nefazodone HCl] came in with a B-score binding assay of -0.887.
Still for that read-out and setting: the result for `Cc1c(O)cccc1C(=O)N[C@@H](CSc1ccccc1)[C@H](O)CN1C[C@H]2CCCC[C@H]2C[C@H]1C(=O)NC(C)(C)C` [Nelfinavir mesylate] reads -6.406; that for `Cc1ccnc2c1NC(=O)c1cccnc1N2C1CC1` [Nevirapine], 2.426; that for `CO[C@]12C[C@@H](COC(=O)c3cncc(Br)c3)CN(C)[C@@H]1Cc1cn(C)c3cccc2c13` [Nicergoline], 0.26.
On the same count and under the same terms, the result for `O=C(Nc1ccc([N+](=O)[O-])cc1Cl)c1cc(Cl)ccc1O` [Niclosamide] reads -0.03; that for `Cn1c(NCCN(CCO)CCCc2ccc([N+](=O)[O-])cc2)cc(=O)n(C)c1=O` [Nifekalant], -0.814.
Same read-out and setting: the result for `Cc1c(NC(=O)c2cccnc2)c(=O)n(-c2ccccc2)n1C` [Nifenazone] reads -0.604; that for `COC(=O)C1=C(C)NC(C)=C(C(=O)OCC(C)C)C1c1ccccc1[N+](=O)[O-]` (stereo not drawn) [Nisoldipine], -2.798.
`CC(=O)Oc1ccccc1C(=O)Nc1ncc([N+](=O)[O-])s1` [Nitazoxanide] returned a B-score binding assay of -0.318.
Still for that read-out and setting: the result for `NC(=O)N/N=C/c1ccc([N+](=O)[O-])o1` [Nitrofural] reads -0.433; that for `C#C[C@]1(O)CC[C@H]2[C@@H]3CCC4=CC(=O)CC[C@@H]4[C@H]3CC[C@@]21C` [Norethindrone], -1.263.
Same read-out and setting: the result for `OCCN1CCN(CCCN2c3ccccc3C=Cc3ccccc32)CC1` [Opipramol dihydrochloride] reads 1.804; that for `Cc1ncc([N+](=O)[O-])n1CC(O)CCl` (stereo not drawn) [Ornidazole], -0.229; that for `CCN(CC)CCc1nc(-c2ccccc2)no1.O=C(O)CC(O)(CC(=O)O)C(=O)O` [Oxalamine citrate salt], -0.496.
`CN1CCCN=C1/C=C/c1cccc(O)c1.O=C(O)c1cc2ccccc2c(Cc2c(O)c(C(=O)O)cc3ccccc23)c1O` [Oxantel pamoate] displayed a B-score binding assay of 0.435.
Regarding `CN(C(=O)CN(CCO)CC(=O)N(C)C(C)(C)Cc1ccccc1)C(C)(C)Cc1ccccc1` [Oxethazaine], the B-score binding assay was -0.191.
Regarding `CCCOc1ccc2nc(NC(=O)OC)[nH]c2c1` [Oxibendazol], the B-score binding assay is reported as -1.969.
Still for that read-out and setting: the result for `C[C@]12C/C(=C/O)C(=O)C[C@@H]1CC[C@@H]1[C@@H]2CC[C@@]2(C)[C@H]1CC[C@]2(C)O` [Oxymetholone] reads 1.895; that for `C=C1C(=O)O[C@H]2[C@H]1CC/C(C)=C/CC[C@@]1(C)O[C@@H]21` [Parthenolide], -0.753; that for `Nc1nc2[nH]cc(CCc3ccc(C(=O)N[C@@H](CCC(=O)O)C(=O)O)cc3)c2c(=O)[nH]1` [Pemetrexed disodium], -0.839.
Same read-out and setting: the result for `Cc1cccn2c(=O)c(-c3nnn[nH]3)cnc12` [Pemirolast potassium] reads -0.574; that for `Nc1nc2c(ncn2CCC(CO)CO)c(=O)[nH]1` [Penciclovir], 1.956.
Still for that read-out and setting: the result for `N=C(N)c1ccc(OCCCCCOc2ccc(C(=N)N)cc2)cc1` [Pentamidine isethionate] reads -0.163.
For the molecule `CC(=O)CCCCn1c(=O)c2c(ncn2C)n(C)c1=O` [Pentoxifylline], the B-score binding assay is -0.069.
Same read-out and setting: the result for `OCCN1CCN(CCCN2c3ccccc3Sc3ccc(Cl)cc32)CC1` [Perphenazine] reads -5.362.
The molecule `Nc1ccc(/N=N/c2ccccc2)c(N)n1` [Phenazopyridine hydrochloride] came in with a B-score binding assay of -2.29.
Still for that read-out and setting: the result for `[H]/N=C(/N)N/C(=N/[H])NCCc1ccccc1` [Phenformin hydrochloride] reads -3.595; that for `O=C1c2ccccc2C(=O)C1c1ccccc1` [Phenindione], -0.842; that for `c1ccc2c(c1)Nc1ccccc1S2` [Phenothiazine], -0.016.
Still for that read-out and setting: the result for `CC(COc1ccccc1)N(CCCl)Cc1ccccc1` (stereo not drawn) [Phenoxybenzamine hydrochloride] reads -2.19; that for `NC(=O)OCCCc1ccccc1` [Phenprobamate], -0.482.
Still for that read-out and setting: the result for `CN1CCC(=C2c3ccccc3Sc3ccccc32)CC1` [Pimethixene maleate] reads 1.14.
Molecule `O=c1[nH]c2ccccc2n1C1CCN(CCCC(c2ccc(F)cc2)c2ccc(F)cc2)CC1` [Pimozide] had a B-score binding assay of -0.085.
The same measure, in the same setting: the result for `CC(=O)c1ccc2c(c1)N(CCCN1CCC(CCO)CC1)c1ccccc1S2` [Piperacetazine] reads 1.105; that for `CCN1CCN(C(=O)N[C@@H](C(=O)N[C@@H]2C(=O)N3[C@@H]2SC(C)(C)[C@@H]3C(=O)O)c2ccccc2)C(=O)C1=O` [Piperacillin sodium salt], -0.015.
Still for that read-out and setting: the result for `NS(=O)(=O)c1cc(C(=O)O)cc(N2CCCC2)c1Oc1ccccc1` [Piretanide] reads 0.068.

Staying with this test, now noted: screening Myrcludex B-FITC binding, 10 µM drug, Prestwick library.
As to `CCN(CC)CCNC(=O)c1cc(Cl)c(N)cc1OC.Cl` [Metoclopramide monohydrochloride], the “%NTCP binding” value was 57.0233%.
Same read-out and setting: the result for `CNc1ncnc2c1ncn2[C@@H]1O[C@H](CO)[C@@H](O)[C@H]1O` [N6-methyladenosine] reads 74.8568%.
For the molecule `CCn1cc(C(=O)[O-])c(=O)c2ccc(C)nc21.[Na+]` [Nalidixic acid sodium salt], the “%NTCP binding” value was determined as 79.2147%.
Still for that read-out and setting: the result for `CCN(CC)CCc1nc(-c2ccccc2)no1.O=C(O)CC(O)(CC(=O)O)C(=O)O` [Oxalamine citrate salt] reads 114.734%.

Staying with this test, now noted: screening Myrcludex B-FITC binding, 10 µM drug; B-score.
`CCN(CC)CCNC(=O)c1cc(Cl)c(N)cc1OC.Cl` [Metoclopramide monohydrochloride] came in with a B-score binding assay of 3.653.
`CCOC(=O)Nc1ccc2c(c1)N(C(=O)CCN1CCOCC1)c1ccccc1S2` [Moricizine hydrochloride]: the B-score binding assay was found to be 2.409.
In turn, `CC1CCc2c(N3CCC(O)CC3)c(F)cc3c(=O)c(C(=O)O)cn1c23` (stereo not drawn) [Nadifloxacin] displayed a B-score binding assay of 2.719.
In turn, `O=C(NCCO[N+](=O)[O-])c1cccnc1` [Nicorandil] returned a B-score binding assay of 2.801.
